Experimental data taken from ChEMBL document CHEMBL5137076, “SLL-627 Is a Highly Selective and Potent κ Opioid Receptor (KOR) Agonist with an Unexpected Nonreduction in Locomotor Activity” (2022).

species on record: Homo sapiens; test: Selectivity index, ratio of Ki for displacement of [3H]DPDPE from rat DOR expressed in CHO cell membranes to Ki for displacement of [3H]U69593 from human KOR expressed in CHO cell membranes

Structure (SMILES)	Ratio Ki
COc1ccc2c3c1O[C@H]1[C@@]4(OC)CC[C@@]5(C[C@@]4(C)C(=O)c4ccc(C)cc4)[C@@H](C2)N(CC2CC2)CC[C@]315	> 120
COc1ccc2c3c1O[C@H]1[C@@]4(OC)CC[C@@]5(C[C@@]4(C)C(=O)c4cc(C)cc(C)c4)[C@@H](C2)N(CC2CC2)CC[C@]315	3.2
COc1ccc2c3c1O[C@H]1[C@@]4(OC)CC[C@@]5(C[C@@]4(C)[C@H](O)c4ccc(C(C)C)cc4)[C@@H](C2)N(CC2CC2)CC[C@]315	0.2
COc1ccc2c3c1O[C@H]1[C@@]4(OC)CC[C@@]5(C[C@@]4(C)[C@H](O)c4ccccc4)[C@@H](C2)N(CC2CC2)CC[C@]315	> 1520
COc1ccc2c3c1O[C@H]1[C@@]4(OC)CC[C@@]5(C[C@@]4(C)[C@H](O)c4ccc(C)cc4)[C@@H](C2)N(CC2CC2)CC[C@]315	> 382
COc1cccc([C@@H](O)[C@]2(C)C[C@@]34CC[C@]2(OC)[C@@H]2Oc5c(OC)ccc6c5[C@@]23CCN(CC2CC2)[C@@H]4C6)c1	52
COc1ccc(C(=O)[C@]2(C)C[C@@]34CC[C@]2(OC)[C@@H]2Oc5c(OC)ccc6c5[C@@]23CCN(CC2CC2)[C@@H]4C6)cc1	8
COc1ccc2c3c1O[C@H]1[C@@]4(OC)CC[C@@]5(C[C@@]4(C)CO)[C@@H](C2)N(CC2CC2)CC[C@]315	25
COc1ccc2c3c1O[C@H]1[C@@]4(OC)CC[C@@]5(C[C@@]4(C)C(=O)c4ccccc4)[C@@H](C2)N(CC2CC2)CC[C@]315	> 250
COc1ccc([C@@H](O)[C@]2(C)C[C@@]34CC[C@]2(OC)[C@@H]2Oc5c(OC)ccc6c5[C@@]23CCN(CC2CC2)[C@@H]4C6)cc1	29
COc1ccc2c3c1O[C@H]1[C@@]4(OC)CC[C@@]5(C[C@@]4(C)[C@H](O)c4ccc(C(F)(F)F)cc4)[C@@H](C2)N(CC2CC2)CC[C@]315	1460
COc1ccc2c3c1O[C@H]1[C@@]4(OC)CC[C@@]5(C[C@@]4(C)C=O)[C@@H](C2)N(CC2CC2)CC[C@]315	4.2
COc1ccc2c3c1O[C@H]1[C@@]4(OC)CC[C@@]5(C[C@@]4(C)C(=O)c4ccc(-c6ccccc6)cc4)[C@@H](C2)N(CC2CC2)CC[C@]315	> 22
COc1ccc2c3c1O[C@H]1[C@@]4(OC)CC[C@@]5(C[C@@]4(C)C(=O)c4ccc(C(C)C)cc4)[C@@H](C2)N(CC2CC2)CC[C@]315	2
COc1ccc2c3c1O[C@H]1[C@@]4(OC)CC[C@@]5(C[C@@]4(C)C(=O)c4ccc6ccccc6c4)[C@@H](C2)N(CC2CC2)CC[C@]315	4
COc1ccc2c3c1O[C@H]1[C@@]4(OC)CC[C@@]5(C[C@@]4(C)[C@H](O)c4ccc(Cl)c(Cl)c4)[C@@H](C2)N(CC2CC2)CC[C@]315	0.04
COc1ccc2c3c1O[C@H]1[C@@]4(OC)CC[C@@]5(C[C@@]4(C)C(=O)c4ccc(C(F)(F)F)cc4)[C@@H](C2)N(CC2CC2)CC[C@]315	27
